Test results as given in US7959743B2, “Lithium salts of fatty alcohol sulphates for cleaning boreholes, boring devices and borings” (priority 2004, dated 2011).

Assays:
[1] = tested on: Skeletonema costatum; assay: Toxicity on Skeletonema costatum (ISO 10253 1988)
Procedure: (§1) An aerobic degradation test was also carried out (Marine Bodies ISO/TC 147/SC 5/WG 4 N 141).

[2] = marine aerobic degradation
Procedure: as §1

[3] = tested on: Corophium volutator; settings: sediment bioassay

Lithium lauryl sulfate, C8-12 [E1]
Skeletonema 72 h EC 50 [1]: 33 mg/L
Aerobic degradation (28 d) in % [2]: 98%
Corophium volutator 10 d, LC 50 [3]: 6585 mg/kg
